In PubChem BioAssay AID1304 (The Scripps Research Institute Molecular Screening Center, 2008):
The list shows a part of the results, in another mix than the full data. Some tests of the compounds listed are not included; inactive here does not mean inactive elsewhere. Active and inactive are the calls of the source. Cut-off read from the data, not from the text of the source: active = activation above about 33% (passing the limit was not always enough); inactive = the rest.

Sequences of proteins named here, by UniProt entry; tags and fusion partners are left off.
UniProt P25929, whole entry: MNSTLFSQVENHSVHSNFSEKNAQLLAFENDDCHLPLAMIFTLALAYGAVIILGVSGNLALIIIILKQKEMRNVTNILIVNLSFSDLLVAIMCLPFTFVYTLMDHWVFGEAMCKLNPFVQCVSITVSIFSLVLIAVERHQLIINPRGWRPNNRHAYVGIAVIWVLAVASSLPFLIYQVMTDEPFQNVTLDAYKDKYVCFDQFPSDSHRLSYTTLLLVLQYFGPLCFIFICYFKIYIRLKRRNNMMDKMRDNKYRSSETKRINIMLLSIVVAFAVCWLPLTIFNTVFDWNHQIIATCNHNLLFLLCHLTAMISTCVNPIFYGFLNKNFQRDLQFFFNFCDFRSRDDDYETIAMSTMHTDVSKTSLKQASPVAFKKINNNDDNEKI

biological target: Neuropeptide Y receptor type 1 (Homo sapiens) (UniProt P25929); assay: activation enhancers of human NPY-Y1 – cell-based, primary screen (AID 1304); conditions: NPY-Y1 expressing cells, potentiator/agonist activation; at 3.6 µM; stronger effect = higher value;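 note: cells stimulated with NPY at EC10 then isoproterenol at EC100; 0% = low agonist plus stimulus and 100% = saturating agonist plus stimulus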

Which activation does the source give for `CN(C)c1cccc(C(=O)NCC2(N(C)C)CCCCC2)c1` here?
The activation was inactive: 12%.

With `COc1ccc(Br)c(C(=O)NCC2(N3CCCCC3)CCCCC2)c1` as the molecule, how does the activation read?
Its activation is inactive: -9.06%.

With `O=C(OC1CN2CCC1CC2)C(CO)(c1ccccc1)c1ccccc1` (stereo unspecified) as the molecule, how does the activation read?
The activation was inactive: -1.79%.

With `COc1cccc(C(=O)NCC2(N3CCCCC3)CCCCC2)c1` as the molecule, how does the activation read?
Its activation is inactive: 10.9%.

With `CCN1CCCC(OC(=O)C2(O)c3ccccc3C=Cc3ccccc32)C1` (stereo unspecified) as the molecule, how does the activation read?
The activation was inactive: 3.56%.

How did the activation turn out when `C=CCN1CCN(CCOC(=O)C(O)(c2ccccc2)c2ccccc2)CC1` was run?
The activation was inactive: -5.95%.

Which activation does the source give for `CN(C)C1CCCC1OC(=O)C(O)(c1ccccc1)c1ccccc1` (stereo unspecified) here?
The activation was inactive: 14.1%.

How did the activation turn out when `Cc1ccccc1C(=O)NCC1(N2CCCCC2)CCCCC1` was run?
The activation was inactive: -15%.

How did the activation turn out when `CC(C)N1C(=O)CC2(CCN(CCOC(=O)C(O)(c3ccccc3)c3ccccc3)CC2)C1=O` was run?
The activation was inactive: 2.48%.

Which activation does the source give for `CCN(CC)CC(C)C(C)OC(=O)C(O)(c1ccccc1)c1ccccc1` (stereo unspecified) here?
Its activation is inactive: 9.04%.

Which activation does the source give for `O=C(NCC1(N2CCCCC2)CCCCC1)c1cc([N+](=O)[O-])ccc1Cl` here?
The activation was inactive: 5.56%.
